Measurements: patent publication US6649639B2, “Antipicornaviral compounds, compositions containing them, and methods for their use” (priority 1997, dated 2003)

System: HI-HeLa cells
Assay: Cytotoxicity (CC50) in mock-infected HI-HeLa cells, antirhinoviral assay
Type: cell-based

**Q.** For “Ethyl-3-(CBZ-L-LeuΨ[COCH2]-D/L-Phe-L-Gln)-E-Propenoate [1 + 9(˜1:1)]”, which CC50 is on record?
**A.** The CC50 was over 320 µM.
